From article PMC5719408, “Multivalent cross-linking of actin filaments and microtubules through the microtubule-associated protein Tau” (Nature Communications, 2017)

Biological target: Filamentous actin (F-actin) polymerised from non-muscle human actin (human) (UniProt P60709)
Assay: co-sedimentation; F-actin with Tau 1:1, 30 min at room temperature; 5000 x g 15 min for bundles (PB), then 100,000 x g 1 h for single filaments (PF); supernatant, PF and PB on 4-20% gradient gel, bands quantified

## Human Tau (2N4R), 441-residue full-length Tau (from UniProt P10636-8 1-441) (natural protein)
  percent of Tau bound to single filaments: 8%
  percent of Tau found with actin bundles: 29%
